This is an account of results in ChEMBL document CHEMBL3397030, “Synthesis and biological evaluation of 3-phenyl-3-aryl carboxamido propanoic acid derivatives as small molecule inhibitors of retinoic acid 4-hydroxylase (CYP26A1)” (Bioorg Med Chem, 2015).

The term IC50 denotes the concentration that inhibits the measured activity by half. Read a high IC50 as a need for much substance.

The target of the experiment is T1, Cytochrome P450 26A1 (Homo sapiens, UniProt O43174).
T1 sequence (O43174 whole entry): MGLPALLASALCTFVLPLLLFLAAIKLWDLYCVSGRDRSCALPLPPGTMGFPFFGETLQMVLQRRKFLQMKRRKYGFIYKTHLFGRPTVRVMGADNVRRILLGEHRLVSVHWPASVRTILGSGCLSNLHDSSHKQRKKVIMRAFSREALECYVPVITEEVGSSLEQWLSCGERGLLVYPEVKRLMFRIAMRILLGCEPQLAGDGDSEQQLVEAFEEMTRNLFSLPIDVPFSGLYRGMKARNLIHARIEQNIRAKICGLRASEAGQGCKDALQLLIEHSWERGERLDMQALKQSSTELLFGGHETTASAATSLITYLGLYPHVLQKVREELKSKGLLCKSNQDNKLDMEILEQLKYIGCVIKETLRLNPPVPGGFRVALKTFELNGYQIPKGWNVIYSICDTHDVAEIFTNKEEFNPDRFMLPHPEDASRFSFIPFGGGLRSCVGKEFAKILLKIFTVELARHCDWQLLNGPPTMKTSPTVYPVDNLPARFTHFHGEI
The experiment in a line: Inhibition of CYP26A1 in ATRA-induced human HL60 cell microsomes incubated for 30 mins using ATRA and NADPH by HPLC method. Format: cell-based, HL-60.

Turning to `Clc1cccc(C(c2ccc3[nH]cnc3c2)n2ccnc2)c1` (stereo unspecified) [LIAROZOLE], half-maximal inhibition (IC50) was put at 2450 nM.
